Results from article PMC4580323, “^18F-FP-PEG2-β-Glu-RGD2: A Symmetric Integrin αvβ3-Targeting Radiotracer for Tumor PET Imaging” (PLoS ONE, 2015).

System: C6 brain glioma
Conditions: rat, in vivo

Substance: ^18F-FDG
- uptake ratio of glioma tissue to gray matter: 1.45 ± 0.21 %ID/g
- uptake ratio of glioma tissue to white matter: 2.24 ± 0.42 %ID/g
